Results reported in BindingDB's records for doi:10.1016/j.chembiol.2017.01.006 (Sanford Burnham Prebys Medical Discovery Institute, 2017).

Chains of the proteins cited; added tags and fusions are not shown. Residues count along the entry.
UniProt P54764, 29-209: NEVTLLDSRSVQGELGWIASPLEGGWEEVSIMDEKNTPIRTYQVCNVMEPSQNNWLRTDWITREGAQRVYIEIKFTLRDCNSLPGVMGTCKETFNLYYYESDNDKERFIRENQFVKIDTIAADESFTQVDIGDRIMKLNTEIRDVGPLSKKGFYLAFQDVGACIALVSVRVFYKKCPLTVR
UniProt P54764, 29-209 M164A: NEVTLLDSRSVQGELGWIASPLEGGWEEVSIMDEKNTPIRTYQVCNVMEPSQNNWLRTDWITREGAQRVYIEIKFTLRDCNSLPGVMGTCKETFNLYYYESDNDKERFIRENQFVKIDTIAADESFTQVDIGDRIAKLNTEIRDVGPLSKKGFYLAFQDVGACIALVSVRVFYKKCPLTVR
UniProt P54764, 29-209 M60A: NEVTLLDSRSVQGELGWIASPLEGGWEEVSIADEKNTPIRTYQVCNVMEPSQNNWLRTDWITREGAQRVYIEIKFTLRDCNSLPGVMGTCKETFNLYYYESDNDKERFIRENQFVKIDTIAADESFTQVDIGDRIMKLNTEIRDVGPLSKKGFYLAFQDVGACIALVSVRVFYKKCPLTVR
UniProt P54764, 29-209 I67A: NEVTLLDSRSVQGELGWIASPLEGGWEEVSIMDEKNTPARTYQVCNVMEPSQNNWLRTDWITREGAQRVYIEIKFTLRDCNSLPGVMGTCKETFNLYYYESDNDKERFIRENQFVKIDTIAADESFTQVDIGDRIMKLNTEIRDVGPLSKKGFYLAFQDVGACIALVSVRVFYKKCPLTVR
UniProt P54764, 29-209 I159A: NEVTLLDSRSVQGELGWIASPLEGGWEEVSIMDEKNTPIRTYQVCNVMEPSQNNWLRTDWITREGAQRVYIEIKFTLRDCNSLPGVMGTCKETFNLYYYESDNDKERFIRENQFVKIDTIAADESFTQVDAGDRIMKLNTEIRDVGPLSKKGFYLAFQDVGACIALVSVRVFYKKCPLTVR
UniProt P54764, 29-209 D61G/E62G: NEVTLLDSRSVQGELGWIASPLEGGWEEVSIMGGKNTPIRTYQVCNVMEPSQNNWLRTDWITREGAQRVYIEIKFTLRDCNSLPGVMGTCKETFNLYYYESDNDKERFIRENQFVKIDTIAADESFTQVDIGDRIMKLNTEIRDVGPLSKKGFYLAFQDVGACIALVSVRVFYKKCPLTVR

How the values were obtained:
[1] = target: T1, Ephrin type-A receptor 4 [29-209] (Homo sapiens, UniProt P54764); assay: Fluorescence Polarization Assay; details: pH 7.2; 25 °C
T1 construct: 29-209
Description: For competitive binding assays, 1 mL of […] EphA4-LBD was pre-incubated with the tested compounds at various concentrations in 98 mL of PBS (pH 7.2) in 96-well black plates at roomtemperature for 10 min, after which 1 mL of 500 mMFITC-labeled EphA4 peptide was added to produce a final volume of […]. KYL and DMSO were incubated in each assay as positive and negative controls, respectively. After 30 min of incubation at room temperature, the polarization values in millipolarization units were measured at excitation/emission wavelengths of 480/535 nm with a multilabel plate reader (PerkinElmer).

[2] = target: T2, Ephrin type-A receptor 4 [29-209,M164A] (Homo sapiens, UniProt P54764, M164A); assay: Isothermal Titration Calorimetry (ITC); details: pH 6.5; 27 °C
T2 construct: 29-209
Description: (§1) The purified EphA proteins (EphA4-LBD, EphA3-LBD, and EphA2-LBD) were dissolved in 50 mM potassium phosphate buffer (pH 6.5) containing 100 mM NaCl. Compound binding was detected at 27 °C by comparing either the 2D-[15N,1H]-HSQC or 2D-[13C,1H]-HSQC spectra of 50 mMEphA4-LBD in absence and presence of compounds at 50 mM. ITC were measured with Model ITC200 from Microcal/GE Life Sciences.

[3] = target: T3, Ephrin type-A receptor 4 [29-209,M60A] (Homo sapiens, UniProt P54764, M60A); assay: Isothermal Titration Calorimetry (ITC); details: pH 6.5; 27 °C
T3 construct: 29-209
Description: as §1

[4] = target: T4, Ephrin type-A receptor 4 [29-209,I67A] (Homo sapiens, UniProt P54764, I67A); assay: Isothermal Titration Calorimetry (ITC); details: pH 6.5; 27 °C
T4 construct: 29-209
Description: as §1

[5] = target: T5, Ephrin type-A receptor 4 [29-209,I159A] (Homo sapiens, UniProt P54764, I159A); assay: Isothermal Titration Calorimetry (ITC); details: pH 6.5; 27 °C
T5 construct: 29-209
Description: as §1

[6] = target: T6, Ephrin type-A receptor 4 [29-209,D61G,E62G] (Homo sapiens, UniProt P54764, D61G/E62G); assay: Isothermal Titration Calorimetry (ITC); details: pH 6.5; 27 °C
T6 construct: 29-209
Description: as §1

[7] = target: T1, Ephrin type-A receptor 4 [29-209]; assay: Isothermal Titration Calorimetry (ITC); details: pH 6.5; 27 °C
Description: as §1

Ki [1]: 0.64 µM
Kd [2]: 0.062 µM
Kd [3]: 0.35 µM
Kd [4]: 0.78 µM
Kd [5]: 0.29 µM
Kd [6]: 0.34 µM
Kd [7]: 0.42 µM
SMILES: COc1ccc2[nH]cc(CCNC(=O)[C@H](Cc3ccncc3)NC(=O)[C@H](Cc3ccc(Cl)cc3)NC(=O)[C@H](Cc3c[nH]c4ccc(O)cc34)NC(=O)CCCN)c2c1 [123C4]
